Our source for the Ki values is BindingDB's records for doi:10.1016/s0006-2952(97)00631-x (Roche Bioscience, 1998).

The chains behind the UniProt entries cited, without tags or fusion partners.
UniProt Q1HL33, whole entry: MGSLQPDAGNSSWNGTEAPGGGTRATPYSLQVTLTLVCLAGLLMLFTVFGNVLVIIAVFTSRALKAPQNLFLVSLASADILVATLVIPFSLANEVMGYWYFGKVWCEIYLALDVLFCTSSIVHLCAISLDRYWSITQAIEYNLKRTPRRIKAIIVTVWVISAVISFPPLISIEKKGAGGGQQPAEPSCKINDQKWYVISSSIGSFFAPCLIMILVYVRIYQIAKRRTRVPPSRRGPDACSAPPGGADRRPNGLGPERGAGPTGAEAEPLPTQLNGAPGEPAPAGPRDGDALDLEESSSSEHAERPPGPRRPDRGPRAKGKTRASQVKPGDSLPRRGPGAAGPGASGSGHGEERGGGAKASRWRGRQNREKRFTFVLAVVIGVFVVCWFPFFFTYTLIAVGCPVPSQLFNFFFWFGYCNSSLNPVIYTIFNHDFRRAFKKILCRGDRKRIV

This experiment deals with Alpha-2A adrenergic receptor (Mus musculus, UniProt Q1HL33).

For orientation: Ki means the dissociation constant of the complex between target and ligand, obtained from inhibition or displacement. The molecule `CNCC(O)c1ccc(O)c(O)c1` (stereo not drawn) [EPINEPHRINE] gave a Ki of 389 nM.
The result for `Brc1c(NC2=NCCN2)ccc2nccnc12` [UK 14,304] reads 43.6 nM.
The result for `COC(=O)[C@@H]1[C@H]2C[C@H]3c4[nH]c5ccccc5c4CCN3C[C@@H]2CC[C@@H]1O` [yohimbic acid methyl ester] reads 36.3 nM.
